Consider 36 molecules from BindingDB's records for US9221831.

What all share (settings): pH 7.4
In assay [1] the target is T1, Kappa-type opioid receptor (Homo sapiens, UniProt P41145).
The target in assay [2] is T2, Mu-type opioid receptor (Homo sapiens, UniProt P35372).
Assay [3] concerns the target T3, Delta-type opioid receptor (Homo sapiens, UniProt P41143).
Assay [4] deals with T2, Mu-type opioid receptor. The source holds these as a separate data set.
Assay [5] has as its target T1, Kappa-type opioid receptor. This is another data set of the same source.
In assay [6] the target is T3, Delta-type opioid receptor. This is another data set of the same source.

pEC50, pKi: −log10 of the molar value.

The term pKi denotes the Ki on a negative log10 scale, so that one unit is a factor of ten. A low value points to a large Ki. For the molecule `COc1ccc2c3c1O[C@H]1[C@@]4(OC)CC[C@@]5(C[C@@H]4COCc4cccc(CC(=O)O)c4)[C@@H](C2)N(CC2CC2)CC[C@]315`, the figures for the pKi (in assay [1]; on Mu-type opioid receptor [2]) were 7.06 and 6.30, respectively.

`COc1ccc2c3c1O[C@H]1[C@@]4(OC)CC[C@@]5(C[C@@H]4COCc4ccccc4)[C@@H](C2)N(CCC(N)=O)CC[C@]315` showed a pKi in assay [1] of 8.77.

The molecule `CO[C@]12CC[C@@]3(C[C@@H]1COCc1ccccc1)[C@H]1Cc4ccc(NC(C)=O)c5c4[C@@]3(CCN1C)[C@H]2O5` showed a pKi in assay [3] of 5.39.

The pEC50 is −log10 of the EC50, conventionally taken in molar units. Higher therefore signals a small EC50. In turn, `CO[C@]12CC[C@@]3(C[C@@H]1COCc1ccccc1)[C@H]1Cc4ccc(CC(O)CO)c5c4[C@@]3(CCN1CC1CC1)[C@H]2O5` (stereo not given in full) showed a pKi in assay [1] of 8.00. The same molecule had a pEC50 at Mu-type opioid receptor [4] of 6.05.

In the case of `COc1ccc2c3c1O[C@H]1[C@@]4(OC)CC[C@@]5(C[C@@H]4COCc4cccc(C(=N)N)c4)[C@@H](C2)N(CC2CC2)CC[C@]315`, in assay [1], the pKi was 8.54.

`COc1ccc2c3c1O[C@H]1[C@@]4(OC)CC[C@@]5(C[C@@H]4COCc4ccccc4)[C@@H](C2)N(Cc2nn[nH]n2)CC[C@]315` gave a pEC50 in assay [5] of 5.62. The same molecule showed a pKi in assay [1] of 7.36.

The molecule `COCCOCCOCCOCCOCCOC[C@H]1C[C@@]23CC[C@]1(OC)[C@@H]1Oc4c(OC)ccc5c4[C@@]12CCN(CC1CC1)[C@@H]3C5` had a pKi in assay [1] of 7.33.

In assay [1], `COc1ccc2c3c1O[C@H]1[C@@]4(OC)CC[C@@]5(C[C@@H]4COCc4c(C)noc4C)[C@@H](C2)N(CC2CC2)CC[C@]315` showed a pKi of 9.82.

In assay [5], `CNC(=O)Nc1cccc(COC[C@H]2C[C@@]34CC[C@]2(OC)[C@@H]2Oc5c(O)ccc6c5[C@@]23CCN(CC2CC2)[C@@H]4C6)c1` showed a pEC50 of 9.24. Also, the pKi in assay [1] was 9.96.

With `COc1ccc2c3c1O[C@H]1[C@@]4(OC)CC[C@@]5(C[C@@H]4COCC(O)CO)[C@@H](C2)N(CC2CC2)CC[C@]315` (stereo not given in full), the values for the pKi (in assay [1]; at Mu-type opioid receptor [2]) were 8.80 and 6.47, respectively.

In turn, `COC(=O)COc1cccc(COC[C@H]2C[C@@]34CC[C@]2(OC)[C@@H]2Oc5c(O)ccc6c5[C@@]23CCN(CC2CC2)[C@@H]4C6)c1` showed a pEC50 in assay [5] of 8.64.

`CO[C@]12CC[C@@]3(C[C@@H]1COCc1ccccc1)[C@H]1Cc4ccc(C(=O)O)c5c4[C@@]3(CCN1C)[C@H]2O5` showed a pKi in assay [1] of 8.26.

The molecule `COc1ccc2c3c1O[C@H]1[C@@]4(OC)CC[C@@]5(C[C@@H]4COCc4ccc(CC(=O)O)cc4)[C@@H](C2)N(CC2CC2)CC[C@]315` gave a pEC50 at Mu-type opioid receptor [4] of 6.02.

With `COc1ccc2c3c1O[C@H]1[C@@]4(OC)CC[C@@]5([C@@H](CCC(=O)O)[C@@H]4COCc4ccccc4)[C@@H](C2)N(CC2CC2)CC[C@]315`, the pKi in assay [1] is 7.72.

As for `CO[C@]12CC[C@@]3(C[C@@H]1COCc1ccccc1)[C@H]1Cc4ccc(-c5nn[nH]n5)c5c4[C@@]3(CCN1CC1CC1)[C@H]2O5`, the pEC50 in assay [5] was 6.44. The molecule also gave a pKi in assay [1] of 8.30.

`COc1ccc2c3c1O[C@H]1[C@@]4(OC)CC[C@@]5(C[C@@H]4CSc4nncs4)[C@@H](C2)N(CC2CC2)CC[C@]315` had a pKi in assay [1] of 8.61.

Consider `CO[C@]12CC[C@@]3(C[C@@H]1COCc1ccc(C(N)=O)cc1)[C@H]1Cc4ccc(O)c5c4[C@@]3(CCN1CC1CC1)[C@H]2O5`, for which the pEC50 in assay [5] was 8.74.

As to `CO[C@]12CC[C@@]3(C[C@@H]1COCc1ccccc1)[C@H]1Cc4ccc(Br)c5c4[C@@]3(CCN1CC1CC1)[C@H]2O5`, the pEC50 in assay [5] was 8.02. In assay [1], this molecule showed a pKi of 9.62.

`COc1ccc2c3c1O[C@H]1[C@@]4(OC)CC[C@@]5(C[C@@H]4COCc4cccc(NS(C)(=O)=O)c4)[C@@H](C2)N(CC2CC2)CC[C@]315`: the pKi in assay [1] was 9.15.

The molecule `CO[C@]12CC[C@@]3(C[C@@H]1COCc1ccccc1)[C@H]1Cc4ccc(C#N)c5c4[C@@]3(CCN1C)[C@H]2O5` gave a pEC50 in assay [5] of 7.06. The molecule also showed a pKi in assay [1] of 8.75.

The molecule `CO[C@]12CC[C@@]3(C[C@@H]1COCc1ccccc1)[C@H]1Cc4ccc(C(O)CO)c5c4[C@@]3(CCN1CC1CC1)[C@H]2O5` (stereo not given in full) had a negative logarithm of the Ki (pKi) in assay [1] of 8.56.

Take `COc1ccc2c3c1O[C@H]1[C@@]4(OC)CC[C@@]5(C[C@@H]4CSc4nc(C)ns4)[C@@H](C2)N(CC2CC2)CC[C@]315`: the pKi in assay [1] is 7.82; in assay [3], 6.21.

Turning to `COc1ccc2c3c1O[C@H]1[C@@]4(OC)CC[C@@]5(C[C@@H]4COCC(N)=O)[C@@H](C2)N(CC2CC2)CC[C@]315`, the pKi in assay [1] is 7.69.

In assay [1], `CO[C@]12CC[C@@]3(C[C@@H]1COCc1ccccc1)[C@H]1Cc4ccc(C(=O)O)c5c4[C@@]3(CCN1CC1CC1)[C@H]2O5` gave a pKi of 8.80.

`COc1ccc2c3c1O[C@H]1[C@@]4(OC)CC[C@@]5(C[C@@H]4COCc4ccccc4)[C@@H](C2)N(CC(=O)O)CC[C@]315` had a pEC50 in assay [5] of 6.38. In addition, the pKi in assay [1] is 7.53.

`COc1ccc2c3c1O[C@H]1[C@@]4(OC)CC[C@@]5(C[C@@H]4CNCC(N)=O)[C@@H](C2)N(CC2CC2)CC[C@]315` gave a pKi on Mu-type opioid receptor [2] of 7.26.

For the molecule `COc1ccc2c3c1O[C@H]1[C@@]4(OC)CC[C@@]5(C[C@@H]4CSc4nc6ccccc6s4)[C@@H](C2)N(C)CC[C@]315`, the pKi in assay [1] is 7.34; in assay [3], 6.50.

Consider `CO[C@]12CC[C@@]3(C[C@@H]1COCc1ccccc1)[C@H]1Cc4ccc(OCC(=O)O)c5c4[C@@]3(CCN1CC1CC1)[C@H]2O5`, for which the results for the pKi (in assay [1]; on Mu-type opioid receptor [2]; in assay [3]) were 7.70, 6.79 and 5.98, respectively.

In the case of `COc1ccc2c3c1O[C@H]1[C@@]4(OC)CC[C@@]5(C[C@@H]4COCc4ccc(C(O)CO)cc4)[C@@H](C2)N(CC2CC2)CC[C@]315` (stereo not given in full), the values for the pKi in assay [1] and in assay [3] were 8.56 and 6.29, respectively. Also, the pEC50 in assay [6] is 6.78; on Mu-type opioid receptor [4], 7.22.

In turn, `COc1ccc2c3c1O[C@H]1[C@@]4(OC)CC[C@@]5(C[C@@H]4COCc4ccccc4)[C@@H](C2)N(CC(N)=O)CC[C@]315` showed a pEC50 in assay [5] of 6.73. In addition, the results for the pKi (in assay [1]; on Mu-type opioid receptor [2]) were 7.80 and 6.75, respectively.

`COc1ccc2c3c1O[C@H]1[C@@]4(OC)CC[C@@]5(C[C@@H]4CSc4nc6ccccc6s4)[C@@H](C2)N(CC2CC2)CC[C@]315` gave a pKi in assay [1] of 8.10.

Regarding `COc1ccc2c3c1O[C@H]1[C@@]4(OC)CC[C@@]5([C@@H](CC#N)[C@@H]4COCc4ccccc4)[C@@H](C2)N(CC2CC2)CC[C@]315`, at Mu-type opioid receptor [4], the pEC50 is 5.67.

`COc1ccc2c3c1O[C@H]1[C@@]4(OC)CC[C@@]5(C[C@@H]4COC(=O)[C@@H](N)CO)[C@@H](C2)N(CC2CC2)CC[C@]315`: the pKi in assay [1] was 7.58.

In assay [1], `CO[C@]12CC[C@@]3(C[C@@H]1COCc1cccc(OCC(=O)O)c1)[C@H]1Cc4ccc(O)c5c4[C@@]3(CCN1CC1CC1)[C@H]2O5` had a pKi of 8.95.

`COc1ccc2c3c1O[C@H]1[C@@]4(OC)CC[C@@]5(C[C@@H]4COCc4cccc(NCC(=O)O)c4)[C@@H](C2)N(CC2CC2)CC[C@]315`: the negative logarithm of the EC50 (pEC50) in assay [5] is 6.89. This molecule had a pKi in assay [1] of 8.01.

Take `COc1ccc2c3c1O[C@H]1[C@@]4(OC)CC[C@@]5(C[C@@H]4COC(=O)[C@@H](N)CCC(N)=O)[C@@H](C2)N(CC2CC2)CC[C@]315`: in assay [5], the pEC50 is 6.50.
